Assay [1] can be described thus: FLIGHT-FXR (NCT02855164) Part C interim analysis, tropifexor in fibrotic NASH. Format: in vivo, human. Conditions: for Relative change in HFF (MRI-PDFF), LS mean (SE), baseline to Week 12: placebo −10.26 (4.21); for patients achieving relative HFF reduction by ≥30% (without imputation for missing values): week 12 (placebo 20%). The text has this: FLIGHT-FXR (NCT02855164) is a phase 2 randomized, double blind, placebo-controlled, 3-part, adaptive-design study to assess the safety, tolerability, and efficacy of several doses of tropifexor (LJN452) in patients with non-alcoholic steatohepatitis (NASH). • METHODS: In Part C, the effects of higher doses of tropifexor on biomarkers and histology will be evaluated over 48 weeks in patients with biopsy-proven NASH and fibrosis stages 2-3. In all, 152 patients (64% females) were randomized to receive placebo (N=51), tropifexor 140 μg (N=50) or tropifexor 200 μg (N=51) once daily. Pre-specified endpoints assessed at week 12 included overall safety and changes in alanine aminotransferase (ALT), hepatic fat fraction (HFF), gamma glutamyl transferase (GGT), and body weight. • RESULTS: Pre-specified endpoints were met for tropifexor at a dose of 200 μg.

The nature of assay [2]: Tropifexor in NASH patients, Parts A and B of study CLJN452A2202. The following applies: 60 and 90 μg.

Results on one molecule are retold here after US20220265619A1, “COMBINATION TREATMENT OF LIVER DISEASES USING FXR AGONISTS” (Novartis AG, priority 2019, published 2022).

`O=C(O)c1cc(F)c2nc(N3C4CC[C@H]3CC(OCc3c(-c5ccccc5OC(F)(F)F)noc3C3CC3)C4)sc2c1` (stereo partly drawn) [tropifexor, 2-[(1R,3r,5S)-3-({5-cyclopropyl-3-[2-(trifluoromethoxy)phenyl]-1,2-oxazol-4-yl}methoxy)-8-azabicyclo[3.2.1]octan-8-yl]-4-fluoro-1,3-benzothiazole-6-carboxylic acid]: the “Relative change in HFF (MRI-PDFF), LS mean (SE), baseline to Week 12” value in assay [1] (140 μg once daily, n = 49, P = 0.209) is given as −16.99 (4.64) %; in assay [1] (200 μg once daily, n = 51, P < 0.001), −31.37 (4.30) %. For the same molecule, the “patients achieving relative HFF reduction by ≥30% (without imputation for missing values)” value is listed as 32% in assay [1] (140 μg) and 64% in assay [1] (200 μg). The “efficacy based on biomarkers and safety at Week 12” value in assay [2] is “anti-inflammatory and anti-steatotic efficacy”.
